This note sets out measurements from US9284362B2, “α/β-peptide mimics of Z-domain peptides” (Wisconsin Alumni Research Foundation, priority 2014, dated 2016).

By UniProt entry, the sequences of proteins in these tests, tags left out. Residues count along the entry.
UniProt P15692, 27-191 isoform P15692-4: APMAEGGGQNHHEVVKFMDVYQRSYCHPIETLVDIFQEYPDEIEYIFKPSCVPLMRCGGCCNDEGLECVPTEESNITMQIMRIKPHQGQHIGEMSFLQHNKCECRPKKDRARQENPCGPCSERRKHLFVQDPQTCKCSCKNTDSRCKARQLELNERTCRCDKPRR
UniProt P01375, 77-233 limits assumed: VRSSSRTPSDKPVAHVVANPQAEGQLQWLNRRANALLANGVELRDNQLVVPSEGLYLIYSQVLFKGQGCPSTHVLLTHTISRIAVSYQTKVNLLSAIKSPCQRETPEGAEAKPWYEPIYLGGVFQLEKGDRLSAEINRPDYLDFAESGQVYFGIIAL

The target of one assay is T1, VEGF (Homo sapiens, UniProt P15692).
T1 construct: made in house
Briefly: VEGF competition fluorescence polarization (FP) assay. The format is binding.

In assay [1] the target is T2, TNFα (binding to immobilized TNFR1) (Homo sapiens, UniProt P01375).
T2 construct: purchased R&D Systems 210-TA-020 (TNFα); 636-R1-025 (sTNF RI)
Briefly: TNFα/TNFR competition ELISA. The settings on record: Table 14; read-out: TNFa-TNFR ELISA IC50.

`CCCC[C@H](NC(=O)[C@H](CCC(=O)O)NC(=O)[C@@H](N)CCCCN)C(=O)N[C@H]1CSSC[C@@H](C(=O)NCC(N)=O)NC(=O)[C@H](CC(=O)O)NC(=O)[C@H](CC(=O)O)NC(=O)[C@H]([C@@H](C)CC)NC(=O)[C@H]([C@@H](C)CC)NC(=O)[C@H](CO)NC(=O)[C@H](Cc2c[nH]c3ccccc23)NC(=O)[C@H]([C@@H](C)CC)NC(=O)[C@H](CCCCN)NC(=O)[C@H](C)NC(=O)[C@H](Cc2c[nH]cn2)NC(=O)[C@H](Cc2ccccc2)NC(=O)[C@H](CCC(N)=O)NC(=O)[C@H](CCC(N)=O)NC(=O)[C@H](CC(=O)O)NC(=O)[C@H](CC(N)=O)NC(=O)[C@H](CC(C)C)NC(=O)[C@H](CC(N)=O)NC(=O)[C@@H]2CCCN2C(=O)[C@H](CC(=O)O)NC(=O)[C@H](CC(C)C)NC(=O)[C@H](C)NC(=O)[C@H](C)NC(=O)[C@H](CCC(=O)O)NC(=O)[C@H]([C@@H](C)CC)NC(=O)[C@H](C)NC(=O)[C@H](CCCNC(=N)N)NC(=O)[C@H](C)NC(=O)[C@H](CC(N)=O)NC1=O` [S1] gave a Ki at VEGF of 9.5 µM.

Turning to `CC[C@H](C)[C@@H]1NC(=O)[C@@H](NC(=O)[C@H](Cc2c[nH]c3ccccc23)NC(=O)CNC(=O)[C@H](CC(C)C)NC(=O)[C@H]2CCC[C@@H]2N)CSSC[C@@H](C(=O)N[C@@H](Cc2c[nH]c3ccccc23)C(=O)N[C@H]2CCC[C@@H]2C(N)=O)NC(=O)C2CNCC2NC(=O)[C@H](CC(C)C)NC(=O)[C@H]([C@@H](C)CC)NC(=O)[C@H](CCCCN)NC(=O)C(C)(C)NC(=O)[C@H](CCCNC(=N)N)NC(=O)[C@H](Cc2ccccc2)NC(=O)[C@H](CCC(N)=O)NC(=O)[C@H](CCC(N)=O)NC(=O)[C@H](Cc2c[nH]cn2)NC(=O)[C@H](CC(N)=O)NC(=O)[C@H](CC(C)C)NC(=O)[C@H](CC(N)=O)NC(=O)[C@@H]2CCCN2C(=O)[C@H](CC(=O)O)NC(=O)[C@H]([C@@H](C)O)NC(=O)CNC(=O)C(C)(C)NC(=O)[C@H](CCC(=O)O)NC(=O)CNC1=O` (stereo partly drawn) [α/β-TNFα-17, XLGWCIGEAGTDPNLNHQQFRAKILZCWX-NH2], in assay [1], the IC50 is 0.0062 µM.
